Data from patent US20150275238A1, “GENETICALLY ENGINEERED MICROBES AND METHODS FOR CONVERTING ORGANIC ACIDS TO ALCOHOLS” (UNIVERSITY OF GEORGIA RESEARCH FOUNDATION, INC., priority 2014, published 2015).

Test system: NADPH
Assay: cells, lysate or membranes named
Details: other: recombinant AdhA in cell extracts of P. furiosus strain A, 50 mM Mops pH 7.5, 2 mM DTT, 70° C., nonlinear regression

With “T. X514 AdhA (Thermoanaerobacter ethanolicus)” the Km was 31 µM.
